Series [1] is described as follows: Lapatinib brain and plasma exposure in Mdr1a/Mdr1b. Format: in vivo, mouse. The conditions noted are these: Mdr1 knockout mice, lapatinib alone.
The conditions of series [2]: mice lacking both murine-type ABCB1 and ABCG2; cited from earlier work.

`CS(=O)(=O)CCNCc1ccc(-c2ccc3ncnc(Nc4ccc(OCc5cccc(F)c5)c(Cl)c4)c3c2)o1` [lapatinib, N-{3-chloro-4-[(3-fluorobenzyl)oxy]phenyl}-6-[5-({[2-(methylsulfonyl)ethyl]amino}methyl)-2-furyl]-4-quinazolinamine]: the “lapatinib brain:plasma ratio (AUC0-24, brain/AUC0-24hr, plasma)” value in series [1] is 0.092. Further, in series [2], the “increase of lapatinib brain-to-plasma ratio” value is 40 fold.

The values are drawn from paper PMC7012088 (Cancer Biology & Therapy, 2019).
